# Measured affinities in a library of Ab-95 light chain variants

The measurements come from Engelhart et al. 2022 (doi:10.1038/s41597-022-01779-4) through the FLAb antibody collection.

All variants were tested on one target, the spike HR2 peptide PDVDLGDISGINAS (SARS-CoV-2).

Parent scFv Ab-95: VH joined to VL by the linker GGGGSGGGGSGGGGS. Changes lie in the light chain CDRs alone.
VH: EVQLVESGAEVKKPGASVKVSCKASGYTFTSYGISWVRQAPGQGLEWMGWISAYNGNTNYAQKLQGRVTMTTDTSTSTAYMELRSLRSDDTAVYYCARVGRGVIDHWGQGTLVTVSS
VL: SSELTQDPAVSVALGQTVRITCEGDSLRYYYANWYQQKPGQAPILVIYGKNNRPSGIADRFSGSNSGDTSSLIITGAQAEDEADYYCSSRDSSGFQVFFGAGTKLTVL

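In library AAYL52, one, two or three CDR residues were substituted; doubles and triples were drawn at random. The assay is AlphaSeq: two haploid yeast populations carry antibody and antigen on their surface. Binding brings cells together so that they mate, and sequencing counts the barcode pairs among the diploids. The ratio of observed to expected reads was calibrated, replicate by replicate, on BCL2-family standards whose Kd was known from biolayer interferometry. There are three technical replicates.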

Changes read parent residue, position, new residue, counted from the first residue of the VL shown. Every variant below is changed at D25 of the VL (sequential numbering). Values are log10 of the apparent Kd in nM; lower means stronger binding. A mean of the replicates is given; it leaves out those without a signal. "ND" means that the variant was in the library but no mating with the target was seen in that replicate; the authors take this as a sign of poor binding, and no number exists. Three control strains display no target. For library AAYL52, 28% of the pairings with them gave a signal, with a median of 3.91 and one signal in twenty below 2.90, so weak values seen in few replicates may be background. Parent in this assay: reference entry 2.31, copy in this library 2.25.

The variant G24I/D25K/K50L gave ND, 5.68, ND. The variant D25K/N52I/F95C showed 2.79, 2.57, 2.47 (mean 2.61). The variant E23R/D25Q showed 1.98, 1.59, 1.69 (mean 1.75). With D25W/S55R the result was 4.46, 4.15, 3.64 (mean 4.08). The variant D25R/S26D/S92I gave 2.63, 2.49, 2.46 (mean 2.53).

The variant D25Y/Y29L/S55F showed 6.00, 5.07, 3.21 (mean 4.76). With D25K/S26Y/S92Q the result was 2.98, 2.93, 2.53 (mean 2.81). The variant D25L/S89Y showed ND, 4.20, ND. The variant D25M/R53N showed 3.53, 3.08, 3.40 (mean 3.34). The variant D25F/A32V/R90S showed 4.03, 4.75, ND (mean 4.39).

The variant D25H/A32I/S55L showed 3.20, ND, ND. The variant D25R/Q96V/F98Q gave 2.76, 2.71, ND (mean 2.74). The variant D25R/S26E/S89P gave 5.03, ND, 3.27 (mean 4.15). The variant D25M/G49E/V97K showed ND, 4.00, ND. The variant D25V/D91V/S92R showed ND, 2.19, 4.10 (mean 3.14).

For D25K/S55G/F98T, the assay gave ND, 3.17, ND. For D25R, the assay gave 2.14, 2.10, 1.37 (mean 1.87). For D25C/R28C/R53L, the assay gave 3.91, 4.79, ND (mean 4.35). The variant D25N/K50F/F98R gave 3.33, 3.55, 3.32 (mean 3.40). For D25Y/Y31D/A32V, the assay gave 1.24, 1.10, 0.54 (mean 0.96).

The variant D25M/Y30Q/R53M showed 1.94, 2.09, 1.36 (mean 1.80). With D25E/S93E/F95I the result was 3.18, 3.91, 3.41 (mean 3.50). For D25H/Y30L/R53K, the assay gave 1.91, 1.60, 1.09 (mean 1.54). With D25K/A32W/V97C the result was ND, 3.77, ND. The variant D25C/N51W/S89A gave 3.55, 4.13, 4.03 (mean 3.90).

The variant D25V/G49W/G94M gave 2.93, 3.78, ND (mean 3.36). With D25H/P54I/R90A the result was 2.89, 2.26, ND (mean 2.57). For D25Y/P54A/F98Y, the assay gave 2.63, 2.40, 2.24 (mean 2.42). The variant D25F/L27C/S88M gave 4.71, 4.87, 4.48 (mean 4.69). The variant E23F/D25N/Y31V showed 3.29, 3.47, 3.28 (mean 3.35).

The variant E23W/D25R/Y31L gave ND, ND, ND. With D25G/R53L/P54L the result was ND, ND, ND. The variant D25C/N51H/S92N showed 4.93, 4.30, ND (mean 4.61). The variant E23P/D25E/R28N gave 3.50, ND, 2.95 (mean 3.22). With D25W/N33S/S93V the result was 3.42, ND, 4.50 (mean 3.96).

For E23A/D25W/S88Q, the assay gave ND, ND, ND.

Repeated from above, the 3 best binders with a signal in all replicates:

changes,log10 Kd (nM) by replicate,"mean, log10 nM"
D25Y/Y31D/A32V,"1.24, 1.10, 0.54",0.96
D25H/Y30L/R53K,"1.91, 1.60, 1.09",1.54
E23R/D25Q,"1.98, 1.59, 1.69",1.75